Data taken from patent publication US10220090B2, “BCMA Antigen binding proteins” (Amgen Inc., priority 2012, dated 2019).
Positions count from the first letter of the chain named. Blank lines part the entries; values can stand above or below the molecule they belong to.

Protein sequences, listed by entry. Tags and fused reporters are not part of them. Chains listed by the source or under a name are the forms on record and can include a tag or linker.
UniProt Q02223, with tags, fused parts or gaps: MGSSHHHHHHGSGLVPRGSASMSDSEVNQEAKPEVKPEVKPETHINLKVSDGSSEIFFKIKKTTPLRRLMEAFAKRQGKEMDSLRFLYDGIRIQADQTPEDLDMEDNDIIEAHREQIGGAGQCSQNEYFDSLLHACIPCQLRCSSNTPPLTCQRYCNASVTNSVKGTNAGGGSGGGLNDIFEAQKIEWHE

Columns and labels:
[1] = test system: recombinant rat (rrat) BCMA; assay: Biacore T200 biosensor analysis, rrat BCMA (Example 16); type: binding
Procedure: (§1) Assay conditions: Biosensor analysis was conducted at 25° C. in a HBS-P buffer system (10 mM HEPES pH 7.4, 150 mM NaCl, and 0.5% Surfactant P20) using a Biacore T200 optical biosensor equipped with a CM5 sensor chip according to the manufacturer's general protocol. The autosampler was maintained at 8° C.
(§2) Surface Preparation: Goat anti-human IgG capture antibody (Jackson Laboratories; 109-005-098) was immobilized to all flow cells of the sensor chip using standard amine coupling chemistry (9,000 RU). This surface type provided a format for reproducibly capturing fresh analysis antibodies (ligand) after each regeneration step.
(§3) Ligand Preparation: Flow cells 1, 2, and 3 were used to analyze captured anti-BCMA antibodies (˜400-500 RU) while flow cell 4 was used as the reference flow cell.
(§4) Analyte Preparation: Six rBCMA concentrations ranging from 75.0 to 0.309 nM (3-fold dilutions) were prepared in running buffer. The rrat BCMA fusion protein (GS::6×His::Sumo::ratBCMA(aa 2-49)::GGS::G3::Avi) sequence:
(§5) Interaction Parameters: Each of the six analyte sample concentrations were run in duplicate and in a mixed order, as a means of assessing the reproducibility of binding and managing potential systematic bias to the order of injection. Multiple blank (buffer) injections also were run and used to assess and subtract system artifacts. The association and dissociation phases for all analyte concentrations were monitored for 300 s and 3600 s, respectively, at a flow rate of 50 uL/min.
(§6) Surface Regeneration: The surface was regenerated with 10 mM glycine, pH 1.5 for 30 s, at a flow rate of 50 uL/min.
(§7) Model/Fit: The data was aligned, double referenced, and fit using Scrubber 2™ software, which is an SPR data processing and non-linear least squares regression fitting program. First, a dissociation rate coefficient (kd) was determined from the first 600 s of the dissociation phase data. Second, the dissociation rate coefficient was applied as a fixed parameter in the global fit of the 300 s association phase data using a 1:1 binding model to determine the association rate coefficient (ka) and the Rmax value.

[2] = target: recombinant human (rhu) BCMA (Homo sapiens, UniProt Q02223); assay: Biacore T200 biosensor analysis, rhu BCMA (Example 16); type: binding
Procedure: as §1, §2, §3, §4, §5, §6, §7

pI (Whole) of antibodies = type: physicochemical; settings: method not stated
[3] = Differential Scanning Calorimetry (DSC) thermostability; type: physicochemical; settings: DSC, full-length antibody
From the text: Differential Scanning calorimetry (DSC) was used to compare the thermostability of parent and engineered antibodies. DSC is a thermodynamical tool for direct assessment of the heat energy uptake, which occurs in a sample within a regulated increase or decrease in temperature. DSC is commonly employed to assess the thermal and conformational stability of a protein. The melting temperature of a protein, or of individual domains, can be obtained from the DSC profile, and if the reaction is reversible the thermodynamic parameters of the unfolding can be determined. A protein is considered more thermostable when the Tm (transition temperature) is higher. When thermostability data are compared to other bioanalytical methods, like size exclusion chromatography (SEC), it has been observed that a correlation between greater thermostability (higher Tm) and decreased aggregation. Antibodies with a higher Tm and decreased aggregation formation have the potential for improved long-term stability thus potentially making better biotherapeutics.
DSC was carried out using a MicroCal™ VP-Capillary DSC system (GE Healthcare, Piscataway, N.J.) equipped with an auto-sampler. The temperature differences between the reference and sample cells are continuously measured, and calibrated to power units. For example, the full-length antibodies shown in TABLE 10 were diluted to 0.5 mg/mL in a buffered solution. The solution reference and protein samples were measured in a 135 μL cell from 20 to 110° C. at a heating rate of 60° C./hour. The pre-scan was set at 15 minutes while the filtering period was 10 seconds. Signal from the blank buffer solution was used for baseline subtraction. The data analysis was performed using MicroCal™ Origin 7 software. Heat capacity during protein melting was calculated by normalizing over protein concentration.

kd [1]: 0.00129 s⁻¹ | Rmax (RU) [2]: 40.2 RU | ka [2]: 565000 M⁻¹ s⁻¹ | kd [2]: 0.000424 s⁻¹
B1: Ab-3: anti-huBCMA mAb, heavy chain SEQ ID NO:278, light chain SEQ ID NO:284 (antibody)
heavy: EVQLLESGGGLVQPGGSLRLSCAASGFTFSSYAMNWVRQAPGKGLEWVSAISVGGDTYYADSVKGRFTISRDNSKNTLYLQVNSLRAEDSAVYYCAKDQVTLVRGVWYYYGLDVWGQGTTVTVSSASTKGPSVFPLAPSSKSTSGGTAALGCLVKDYFPEPVTVSWNSGALTSGVHTFPAVLQSSGLYSLSSVVTVPSSSLGTQTYICNVNHKPSNTKVDKKV[omitted - human IgG1 Fc]
light: DIVLTQSPLSLPVTPGEPASISCRSSQSLLHSNGNNYLDWYLQKPGQSPHLLISLGSQRTSGVPDRFSGSGSGTDFTLKISRVEAEDVGVYYCMQALQPPRRFGQGTKLEIKRTVAAPSVFIFPPSDEQLKSGTASVVCLLNNFYPREAKVQWKVDNALQSGNSQESVTEQDSKDSTYSLSSTLTLSKADYEKHKVYACEVTHQGLSSPVTKSFNRGEC
ka [1]: 626000 M⁻¹ s⁻¹ | pI (Whole) (pI (Whole) of antibodies): 8.55 | Tm [3]: 79 °C

kd [1]: 0.0014 s⁻¹ | Rmax (RU) [2]: 52.5 RU | ka [2]: 638000 M⁻¹ s⁻¹ | kd [2]: 0.000707 s⁻¹
B2: Ab-2: anti-huBCMA mAb, heavy chain SEQ ID NO:276, light chain SEQ ID NO:282 (antibody)
heavy: B1 heavy with V82M, S90T, L102M
light: B1 light with L4M
ka [1]: 597000 M⁻¹ s⁻¹ | pI (Whole) (pI (Whole) of antibodies): 8.55 | Tm [3]: 82.5 °C
